The subject of series [1] is Male Sprague-Dawley rats, carrageenan paw edema. Description: rat paw edema test (carrageenan), antiinflammatory activity. It counts as in vivo. To be noted: oral gavage one hour prior to subplantar carrageenan, paw volume three hours later, expressed as ratio (Vehicle = 1). On the technique in general: Carrageenan injected into the paw causes an acute inflammation.
In series [2] the test system is Male Sprague Dawley rats, gastric hemorrhagic lesion. Description: rat gastric lesion test. To be noted: rat fasted 24 hours, oral gavage, lesion score (summed length, mm) three hours after dosing; ratio relative to parent NSAID (Naproxen = 1).

On to “(2R)-7-(Nitrooxy)-4,8-dioxabicyclo(3.3.0)oct-2-yl(2S)-2-(6-methoxy (2-naphthyl)) propanoate”, for which the “Relative Activity Antiinflammation” value in series [1] is given as 0.45. In series [2], the “Relative Activity Gastric Lesion” value is on record as 0.09.

(Values after US7754772B2, “Nitrosated nonsteroidal antiinflammatory compounds, compositions and methods of use” (NicOx, S.A., priority 2002, dated 2010).)
